{"source": "ChEMBL document CHEMBL1155951", "about": "“Design, synthesis, and biological activities of conformationally restricted analogs of primaquine with a 1,10-phenanthroline framework” (Bioorg Med Chem Lett, 2008)", "key": {"[1]": {"system": "Plasmodium falciparum", "assay": "Antiplasmodial activity against chloroquine-sensitive Plasmodium falciparum F32 after 48 hrs by [3H]hypoxanthine uptake", "format": "functional, organism-based"}, "[2]": {"system": "Plasmodium falciparum", "assay": "Antiplasmodial activity against chloroquine-resistant Plasmodium falciparum W2 after 48 hrs by [3H]hypoxanthine uptake", "format": "functional, organism-based"}, "[3]": {"system": "Plasmodium falciparum", "assay": "Antiplasmodial activity against chloroquine-resistant Plasmodium falciparum FcM29 after 48 hrs by [3H]hypoxanthine uptake", "format": "functional, organism-based"}, "[4]": {"system": "Plasmodium falciparum", "assay": "Antiplasmodial activity against chloroquine-resistant Plasmodium falciparum FcB1 after 48 hrs by [3H]hypoxanthine uptake", "format": "functional, organism-based", "details": "FcB1/Columbia"}, "[5]": {"system": "Plasmodium falciparum", "assay": "Antiplasmodial activity against chloroquine-resistant Plasmodium falciparum W2 gametocytes after 48 hrs by microscopy", "format": "functional, organism-based", "details": "W2, 48 h"}, "[6]": {"assay": "Selectivity index, ratio of IC50 for african green monkey (Cercopithecus aethiops) Vero cells to IC50 for chloroquine-sensitive Plasmodium falciparum F32", "format": "toxicity, cell-based", "details": "read-out: Ratio IC50"}, "[7]": {"assay": "Selectivity index, ratio of IC50 for african green monkey (Cercopithecus aethiops) Vero cells to IC50 for chloroquine-resistant Plasmodium falciparum W2", "format": "toxicity, cell-based", "details": "read-out: Ratio IC50"}, "[8]": {"assay": "Selectivity index, ratio of IC50 for african green monkey (Cercopithecus aethiops) Vero cells to IC50 for chloroquine-resistant Plasmodium falciparum FcM29", "format": "toxicity, cell-based", "details": "read-out: Ratio IC50"}, "[9]": {"assay": "Selectivity index, ratio of IC50 for african green monkey (Cercopithecus aethiops) Vero cells to IC50 for chloroquine-resistant Plasmodium falciparum FcB1", "format": "toxicity, cell-based", "details": "read-out: Ratio IC50"}}}
{"smiles": "COc1cc(NC(C)CCCN)c2ncccc2c1", "note": "(centres undefined) [PRIMAQUINE]", "values": [{"measurement": "IC50", "setting": "[1]", "result": 6.83, "unit": "µM"}, {"measurement": "IC50", "setting": "[2]", "result": 7.7, "unit": "µM"}, {"measurement": "IC50", "setting": "[3]", "result": 7.25, "unit": "µM"}, {"measurement": "IC50", "setting": "[4]", "result": 6.87, "unit": "µM"}, {"measurement": "IC50", "setting": "[5]", "result": 9.65, "unit": "µM"}, {"measurement": "selectivity ratio", "setting": "[6]", "result": 49}, {"measurement": "selectivity ratio", "setting": "[7]", "result": 44}, {"measurement": "selectivity ratio", "setting": "[8]", "result": 47}, {"measurement": "selectivity ratio", "setting": "[9]", "result": 49}]}
